Test: Thermal unfolding profiles (Tycho NT.6 fluorimeter): temperature stability of the biologic with or without MTX
Assay type: physicochemical
Excerpt: To prepare the compositions according to the invention, the biologics were combined with methotrexate disodium at concentrations of 25 milligrams per milliliter, 16.6 milligrams per milliliter, 10.0 milligrams per milliliter, 7.14 milligrams per milliliter, and 5.0 milligrams per milliliter, respectively. Phosphate buffered saline (PBS buffer) pH 7.5 was used as the solvent. As reference composition in each case served the biopharmaceutical in equivalent concentration in PBS buffer pH 7.5 without the addition of methotrexate disodium.
In each case, the above-noted concentrations were the final concentration of the biopharmaceutical or the methotrexate in the pharmaceutical composition.
After 20 days of incubation, the compositions were measured using a Tycho NT.6 fluorimeter (NanoTemper Technologies, Munich, Germany) according to the manufacturer's instructions to determine the thermal unfolding profiles of the biologics.
The inflection point of each curve indicates the denaturation temperature of the biopharmaceutical in the composition.

Abatacept: biologic binding lymphocyte activation antigen CD80 or CD86 (trade name: Orencia)
temperature stability in composition with MTX (MTX 10 milligrams per milliliter, PBS pH 7.5, 20 days of incubation): 91.5 °C
denaturation temperature / temperature stability in reference composition without MTX (PBS buffer pH 7.5, without MTX, after 20 days of incubation): 85.9 °C

Reference: US20230414622A1, “PHARMACEUTICAL METHOTREXATE COMPOSITION” (Leopold MTX GmbH, priority 2020, published 2023)
